Experimental findings from ChEMBL document CHEMBL1140340 (J Med Chem, 2005) are described below.

Sequences of proteins named here, by UniProt entry; tags and fusion partners are left off.
UniProt P31652, whole entry: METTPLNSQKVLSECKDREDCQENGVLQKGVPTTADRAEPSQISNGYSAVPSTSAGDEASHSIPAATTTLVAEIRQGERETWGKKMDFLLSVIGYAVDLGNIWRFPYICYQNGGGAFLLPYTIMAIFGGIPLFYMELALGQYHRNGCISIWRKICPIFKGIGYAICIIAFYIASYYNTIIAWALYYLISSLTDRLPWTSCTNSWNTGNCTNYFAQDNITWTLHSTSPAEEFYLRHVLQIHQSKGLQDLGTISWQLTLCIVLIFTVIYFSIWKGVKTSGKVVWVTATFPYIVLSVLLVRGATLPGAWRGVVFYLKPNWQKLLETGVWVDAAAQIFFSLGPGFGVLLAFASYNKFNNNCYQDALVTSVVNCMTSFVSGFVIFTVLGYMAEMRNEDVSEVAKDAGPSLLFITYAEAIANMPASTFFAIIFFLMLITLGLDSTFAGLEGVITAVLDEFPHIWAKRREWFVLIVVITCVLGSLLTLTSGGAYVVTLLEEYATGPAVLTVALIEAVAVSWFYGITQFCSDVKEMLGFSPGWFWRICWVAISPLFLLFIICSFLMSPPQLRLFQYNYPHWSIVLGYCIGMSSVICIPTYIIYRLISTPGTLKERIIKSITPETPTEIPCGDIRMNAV
UniProt Q9WTR4, whole entry: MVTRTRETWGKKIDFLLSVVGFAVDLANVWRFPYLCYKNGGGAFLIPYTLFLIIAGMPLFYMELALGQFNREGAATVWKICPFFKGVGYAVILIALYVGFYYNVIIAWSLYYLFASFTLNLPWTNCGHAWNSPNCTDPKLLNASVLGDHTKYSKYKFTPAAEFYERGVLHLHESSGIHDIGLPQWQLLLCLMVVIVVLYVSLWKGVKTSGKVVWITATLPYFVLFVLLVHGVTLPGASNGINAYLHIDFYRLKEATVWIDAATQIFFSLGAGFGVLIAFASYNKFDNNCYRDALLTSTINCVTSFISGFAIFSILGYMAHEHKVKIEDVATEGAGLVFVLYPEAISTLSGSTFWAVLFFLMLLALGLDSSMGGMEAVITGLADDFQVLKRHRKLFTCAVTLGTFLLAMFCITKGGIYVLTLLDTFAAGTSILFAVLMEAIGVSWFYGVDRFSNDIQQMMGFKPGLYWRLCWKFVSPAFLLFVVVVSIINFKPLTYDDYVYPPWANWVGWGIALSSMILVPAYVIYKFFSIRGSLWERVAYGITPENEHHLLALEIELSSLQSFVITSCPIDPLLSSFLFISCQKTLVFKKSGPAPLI
UniProt P23977, whole entry: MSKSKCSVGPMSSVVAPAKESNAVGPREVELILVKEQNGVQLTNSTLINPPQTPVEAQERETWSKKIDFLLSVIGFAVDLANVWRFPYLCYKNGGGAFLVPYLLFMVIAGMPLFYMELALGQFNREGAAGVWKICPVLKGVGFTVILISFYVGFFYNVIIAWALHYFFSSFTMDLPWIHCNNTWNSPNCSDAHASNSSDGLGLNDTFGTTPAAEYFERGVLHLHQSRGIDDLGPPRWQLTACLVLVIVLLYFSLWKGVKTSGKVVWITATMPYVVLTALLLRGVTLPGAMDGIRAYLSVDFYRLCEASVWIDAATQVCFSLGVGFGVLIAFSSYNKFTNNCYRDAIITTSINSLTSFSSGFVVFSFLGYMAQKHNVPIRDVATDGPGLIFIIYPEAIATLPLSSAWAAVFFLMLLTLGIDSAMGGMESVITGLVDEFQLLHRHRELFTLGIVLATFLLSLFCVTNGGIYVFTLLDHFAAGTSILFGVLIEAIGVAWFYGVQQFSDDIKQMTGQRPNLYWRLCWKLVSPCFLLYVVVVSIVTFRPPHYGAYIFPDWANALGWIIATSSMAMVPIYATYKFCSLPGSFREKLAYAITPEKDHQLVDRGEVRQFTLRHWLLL

The target of assay [1] is T1, Sodium-dependent serotonin transporter (Rattus norvegicus, UniProt P31652). The assay is described as follows: Inhibition of rat brain Serotonin transporter as accumulation of [3H]5-HT. In kind it is functional.
Assay [2] addresses T2, Norepinephrine transporter (Rattus norvegicus, UniProt Q9WTR4). The assay is described as follows: Inhibition of rat brain Norepinephrine transporter as accumulation of [3H]NE. In kind it is functional.
The target of assay [3] is T3, Sodium-dependent dopamine transporter (Rattus norvegicus, UniProt P23977). The assay is described as follows: Inhibition of rat brain dopamine transporter as accumulation of [3H]DA. It is filed as functional.
Assay [4] concerns the target T1, Sodium-dependent serotonin transporter. Nature of the assay: Inhibition of rat brain Serotonin transporter uptake as [3H]5-HT accumulation.
For assay [5], the target named is T3, Sodium-dependent dopamine transporter. The assay is described as follows: Inhibition of rat brain Dopamine transporter uptake as [3H]DA accumulation. It is filed as functional.
Assay [6] shares this target. Nature of the assay: Inhibition of [3H]WIN-35428 binding to rat brain dopamine transporter.
The target of assay [7] is T2, Norepinephrine transporter. Nature of the assay: Inhibition of rat brain Norepinephrine transporter as accumulation of [3H]-NE. In kind it is functional.

On to `COc1ccc(CN[C@@H]2CO[C@H](C(c3ccccc3)c3ccccc3)C[C@H]2O)cc1`, for which the Ki (in general, the equilibrium dissociation constant of an inhibitor or competing ligand from its target) was found to be 25.9 nM in assay [1] and 115 nM in assay [3]. Moreover, in assay [2], the IC50 (as a rule, the concentration that inhibits the measured activity by half) is 17.7 nM.

Turning to `COc1ccc(CNC2COC(C(c3ccccc3)c3ccccc3)CC2O)cc1` (single isomer, unassigned), the Ki in assay [1] came to 669 nM; in assay [3], 110 nM. The 50% inhibitory concentration (IC50) stood at 745 nM in assay [4], 445 nM in assay [2], 148 nM in assay [5] and 182 nM in assay [6].

On to `Fc1ccc(C(OCCN2CCN(CCCc3ccccc3)CC2)c2ccc(F)cc2)cc1` [VANOXERINE], for which, in assay [7], the Ki amounted to 102 nM. Moreover, the IC50 in assay [2] amounted to 114 nM.
